Apparent affinities of Ab-95 variants for a coronavirus HR2 peptide

Antigen: PDVDLGDISGINAS, a 14-residue peptide of the SARS-CoV-2 spike HR2 region.

Ab-95 is the parent antibody, in scFv form: VH, then the linker GGGGSGGGGSGGGGS, then VL. The heavy chain is unchanged in all variants.
VH: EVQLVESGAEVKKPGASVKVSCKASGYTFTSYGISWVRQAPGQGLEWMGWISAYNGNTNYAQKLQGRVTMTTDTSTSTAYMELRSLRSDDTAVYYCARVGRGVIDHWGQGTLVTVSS
VL: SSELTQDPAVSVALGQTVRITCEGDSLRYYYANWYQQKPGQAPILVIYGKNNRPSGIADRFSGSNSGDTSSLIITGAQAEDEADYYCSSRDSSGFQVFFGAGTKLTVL

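Phage display of a naive human antibody library on the peptide gave the parent. The library (AAYL52) carries one to three amino acid substitutions per variant, with no insertions or deletions. In AlphaSeq, yeast of one mating type display the scFv and yeast of the other type display the target. The frequency of each diploid, read from paired DNA barcodes, reflects how well the two displayed proteins bind. Scores were corrected for input abundance and mapped to Kd with protein pairs of known affinity run in the same pool. There are three technical replicates.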

Each variant is given by its three light chain CDRs, as the data file delimits them; those of the parent are EGDSLRYYYAN, GKNNRPS, SSRDSSGFQVF. This list gathers variants with a substitution at A32 (VL, numbered from residue 1). Each Kd is an estimate from the mating assay, the geometric mean of the replicates in which the pair was seen; lower is stronger. A pair that was not seen in any replicate is written "no signal"; this usually means weak binding, but a binder can also be missed. Order: sorted from the lowest average up, undetected variants last. Empty control strains, which show no peptide, gave a signal in 28% of pairings with library AAYL52; the median was 8.2 µM and 95% of these signals were weaker than 800 nM. No background was subtracted. Also given: how often the same scFv was detected with the empty control strains. For reference, the parent read 200 nM as the reference entry and 180 nM as a member of this library.

QGDSLNYYYNN | GKNNRPS | SSRDSSGFQVF: 12 nM (3 of 3 replicates; controls 1 of 9).
EGDSLRYSYGN | GKNNRPS | STRDSSGFQVF: 87 nM (3 of 3 replicates; controls 2 of 9).
ELDSYRYYYWN | GKNNRPS | SSRDSSGFQVF: 180 nM (3 of 3 replicates; controls 2 of 9).
EGDSLRYYYYN | GNNNRPC | SSRDSSGFQVF: 350 nM (3 of 3 replicates; controls 0 of 9).
EGDSLRYYYPN | GKNNLPS | SSRDSDGFQVF: 360 nM (3 of 3 replicates; controls 3 of 9).
EGDYLRQYYTN | GKNNRPS | SSRDSSGFQVF: 370 nM (3 of 3 replicates; controls 5 of 9).
EGDSLRYYYNN | GKNNQPS | SSRDSSGFQVF: 440 nM (3 of 3 replicates; controls 4 of 9).
EGDSKRYYYFN | GGNNRPS | SSRDSSGFQVF: 630 nM (3 of 3 replicates; controls 0 of 9).
EGDSLRYYYMN | GKNNRPS | SSRDSSFFQNF: 790 nM (2 of 3 replicates; controls 3 of 9).
EGDSVRYYYHN | GKNNRPS | SSRDSSAFQVF: 930 nM (3 of 3 replicates; controls 2 of 9).
EGDSLRYYYCN | GKNNRPS | SSRDCSLFQVF: 1.6 µM (3 of 3 replicates; controls 2 of 9).
EGDSDRYYHYN | GKNNRPS | SSRDSSGFQVF: 1.9 µM (3 of 3 replicates; controls 2 of 9).
EGDSLRYYYKN | GKNNRPS | SSYDSSGPQVF: 2.1 µM (2 of 3 replicates; controls 3 of 9).
EGDSMRYYYCN | GKNNRPS | SGRDSSGFQVF: 2.2 µM (2 of 3 replicates; controls 1 of 9).
GEDSLRYYYLN | GKNNRPS | SSRDSSGFQVF: 2.5 µM (3 of 3 replicates; controls 4 of 9).
EGDSLRYYYMQ | GTNNRPS | SSRDSSGFQVF: 2.8 µM (2 of 3 replicates; controls 3 of 9).
EGTSLRYYYGN | GKNNRPS | LSRDSSGFQVF: 6.0 µM (3 of 3 replicates; controls 3 of 9).
EGDEHRYYYVN | GKNNRPS | SSRDSSGFQVF: 7.3 µM (3 of 3 replicates; controls 3 of 9).
EGDSLRYYFGN | GWNNRPS | SSRDSSGFQVF: 7.4 µM (3 of 3 replicates; controls 1 of 9).
EGDSLRYYYGN | GKNNAPS | SSRDSSGFQVV: 7.9 µM (1 of 3 replicates; controls 3 of 9).
EGDSLRYYYSN | GKNNRPS | PSRDSSRFQVF: 8.7 µM (2 of 3 replicates; controls 0 of 9).
EGDSLRTYIYN | GKNNRPS | SSRDSSGFQVF: 8.9 µM (1 of 3 replicates; controls 2 of 9).
EGDSLRYYWWN | GKNNRPS | SSRDSSGFTVF: 11 µM (3 of 3 replicates; controls 3 of 9).
EGDSLRYYYLW | GKNNRPS | SSRESSGFQVF: 12 µM (1 of 3 replicates; controls 1 of 9).
EQDSLRYYYCN | GKNNRHS | SSRDSSGFQVF: 16 µM (2 of 3 replicates; controls 2 of 9).
EGDSLRYYYIN | IINNRPS | SSRDSSGFQVF: 17 µM (1 of 3 replicates; controls 0 of 9).
EGDSLRYYYEN | GENNRPS | SSRDSSGFQVK: 21 µM (1 of 3 replicates; controls 2 of 9).
EGDSLRYYYLS | GKNNRPS | SSRDSSGSQVF: 21 µM (3 of 3 replicates; controls 6 of 9).
FGDSLRYYYRN | GPNNRPS | SSRDSSGFQVF: 25 µM (3 of 3 replicates; controls 3 of 9).
EGDSLRYYYFN | GKNLRPS | SSRDSSFFQVF: 25 µM (1 of 3 replicates; controls 4 of 9).
EGDSLRYYYNN | GKNNCPM | SSRDSSGFQVF: 26 µM (1 of 3 replicates; controls 4 of 9).
EGDSLRHYYHN | GKNNRPS | SSRDSSGFQQF: 27 µM (2 of 3 replicates; controls 1 of 9).
EGDSLRYYYYN | GKNNRPQ | ISRDSSGFQVF: 28 µM (2 of 3 replicates; controls 0 of 9).
EGDSLRYYYDN | GKNNRPP | SSRDESGFQVF: 30 µM (1 of 3 replicates; controls 2 of 9).
EGDRLRYYLFN | GKNNRPS | SSRDSSGFQVF: 33 µM (1 of 3 replicates; controls 2 of 9).
EGDSLRYYYGH | GKNNRPS | SSRDSHGFQVF: 34 µM (3 of 3 replicates; controls 4 of 9).
EGDSLRYYYWN | GKNNRPS | SSRSSRGFQVF: 59 µM (2 of 3 replicates; controls 4 of 9).
EGDSLDYYYRN | AKNNRPS | SSRDSSGFQVF: 440 µM (1 of 3 replicates; controls 2 of 9).
EGDSLRYYYHN | AKNNRPS | ESRDSSGFQVF: no signal (0 of 3 replicates; controls 1 of 9).
EGDSLRYYYRN | GENNRWS | SSRDSSGFQVF: no signal (0 of 3 replicates; controls 3 of 9).
EGDSLRNYYHN | GKNNRPS | SSRDSSAFQVF: no signal (0 of 3 replicates; controls 3 of 9).
EGDSLRYYYCN | GKNNCPS | SHRDSSGFQVF: no signal (0 of 3 replicates; controls 3 of 9).
EGDSLRYYLVN | GKNNRPS | SSRDSSGFQIF: no signal (0 of 3 replicates; controls 2 of 9).
EGDSLRYYYDN | GWNNRPS | SDRDSSGFQVF: no signal (0 of 3 replicates; controls 2 of 9).
EGDSLRAYYWN | GKNNRPS | RSRDSSGFQVF: no signal (0 of 3 replicates; controls 0 of 9).

Again, the first 6 entries without any signal:

With EGDSLRYYYHN | AKNNRPS | ESRDSSGFQVF the result was no signal (0 of 3 replicates; controls 1 of 9).
With EGDSLRYYYRN | GENNRWS | SSRDSSGFQVF the result was no signal (0 of 3 replicates; controls 3 of 9).
With EGDSLRNYYHN | GKNNRPS | SSRDSSAFQVF the result was no signal (0 of 3 replicates; controls 3 of 9).
With EGDSLRYYYCN | GKNNCPS | SHRDSSGFQVF the result was no signal (0 of 3 replicates; controls 3 of 9).
With EGDSLRYYLVN | GKNNRPS | SSRDSSGFQIF the result was no signal (0 of 3 replicates; controls 2 of 9).
With EGDSLRYYYDN | GWNNRPS | SDRDSSGFQVF the result was no signal (0 of 3 replicates; controls 2 of 9).

Source: Engelhart et al. 2022 (doi:10.1038/s41597-022-01779-4), MIT Lincoln Laboratory and A-Alpha Bio; data file from the FLAb repository.